In US20220265667A1, “ETIFOXINE FOR USE IN THE TREATMENT OF DISEASES RELATED TO ACTIVATED MAST CELLS” (priority 2019, published 2022):

Test system: patient with therapy-resistant systemic mastocytosis
Experiment: Human in-vivo off-label clinical test, symptom intensity by visual analog score (VAS)
Details: 6 week oral treatment, one patient
Procedure: A human in-vivo clinical test was conducted treating a patient with therapy-resistant systemic mastocytosis with off-label oral application of Etifoxine in full consent and patient agreement. The results of the clinical test were closely monitored, captured and documented together with patient. The patient is and diagnosed with systemic mastocytosis (WHO criteria, KIT816V positiv) with official diagnosis. The disease course over the past 25 year has been progressive and increasing therapy-resistant leading to job disability in the year 2019. The current daily treatment of the patient is: H1 antihistamine 3× daily, cromolyn 4×200 mg daily, PPI 110 mg daily, Vitamine C/Vitamine D upon need, Actonel, upon need decortin 40 to 60 mg. Xolair has been discontinued after 7 years upon onset of serum disease, and the patient was therapy-resistant towards the kinase-inhibitors Imatinib, Dasatinib and Sunitinib. […]
The symptom intensity was determined by a visual analog score (VAS; 0=no symptoms, 10=excruciating symptom intensity) on a weekly basis starting with a VAS baseline value before starting the intake of Etifoxine.

`CCNC1=Nc2ccc(Cl)cc2C(C)(c2ccccc2)O1` (racemic) [Etifoxine, 6-Chloro-2-N-ethyl-4-methyl-4-phenyl-4H-3,1-benzoxazine-2-amine] was tested, and the “reduction of clinical symptom intensity in each clinical symptom category” value was “significant in each category”.
